Legend:
Format in all cases: cell-based
[1] = target: T1, PAR4 (Homo sapiens (Human), UniProt Q96RI0); assay: FLIPR assay in PAR4-expressing HEK293 cells, test for antagonist activity; settings: H-Ala-Phe(4-F)-Pro-Gly-Trp-Leu-Val-Lys-Asn-Gly-NH2-induced calcium mobilization
Description: The FLIPR assay is an exemplary in vitro assay for measuring the activity of the PAR4 antagonists of the present invention. In this assay, intracellular calcium mobilization is induced in PAR4 expressing cells by a PAR4 agonist and calcium mobilization is monitored. See, e.g., Example A. The FLIPR assay is also an exemplary in vitro assay for measuring the agonist activity of PAR4 agonist peptides. See Example H.
(§1) HEK293 cells stably expressing PAR4 were generated by a standard method of transfection of human […] cDNA expression vector or by RAGE technology from Athersys Inc. (Cleveland, Ohio) and selected based on PAR4 protein expression of mRNA expression. […] These cells express endogenous PAR1 and can elicit calcium signal upon stimulation with PAR1 agonist peptide.
Counter screens for agonist activity and PAR1 antagonist activity were also performed. Briefly, HEK293 EBNA PAR4 clone 20664.1J cells were plated 24 hrs. prior to experiment in 384 well, Poly-D-Lysine coated, black, clear bottom plates (Greiner Bio-One, Monroe, N.C.). Cells were plated at 20,000 cells/well in 20 μl growth medium and incubated at 37° C. with 5% CO2 overnight. […]

Amino acid sequences for entries named in this document (tags omitted). Residues count along the entry.
UniProt Q96RI0, 18-385: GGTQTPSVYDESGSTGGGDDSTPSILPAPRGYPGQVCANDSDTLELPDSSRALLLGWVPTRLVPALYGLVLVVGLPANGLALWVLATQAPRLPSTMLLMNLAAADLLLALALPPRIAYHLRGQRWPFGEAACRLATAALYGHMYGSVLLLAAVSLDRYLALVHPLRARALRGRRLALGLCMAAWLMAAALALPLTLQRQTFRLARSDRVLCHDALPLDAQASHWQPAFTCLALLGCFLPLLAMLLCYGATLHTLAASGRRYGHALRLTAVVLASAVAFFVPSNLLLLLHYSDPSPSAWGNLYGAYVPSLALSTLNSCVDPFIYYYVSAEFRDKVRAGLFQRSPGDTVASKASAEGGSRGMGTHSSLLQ

[2] = target: T1, PAR4; assay: Gamma thrombin induced platelet aggregation assay (PRP assay); settings: platelet rich plasma
Method: The platelet rich plasma was isolated by centrifugation at 170 g for 14 minutes.
The ability of the compounds of the current invention to inhibit platelet aggregation induced by gamma-thrombin was tested in a 96-well microplate aggregation assay format. Briefly, PRP or washed platelet suspension (100 μl) was pre-incubated for 5 minutes at room temperature with varying concentrations of compounds. Aggregation was initiated by ˜10-50 nM gamma thrombin (Haematologic Technologies, Essex Junction, Vt.), which was titrated daily to achieve 80% platelet aggregation. Refludan at 1 U/mL (Berlex, Montville, N.J.) was added to the gamma thrombin sample to prevent PAR1 activation induced by residual alpha-thrombin contamination. The plate was then placed into a 37° C. Molecular Devices (Sunnyvale, Calif.) SPECTRAMAX® Plus Plate Reader. […] The plate also included an untreated control sample which served as ODmax, while buffer containing no platelets was the ODmin. Platelet aggregation was determined by subtracting the ODmax from the ODmin for the 100% aggregation value. In experimental samples, the observed transmission was subtracted from the minimum value and then compared to the 100% aggregation value to determine the percentage aggregation. IC50 values are determined using Excel Fit software.

[3] = target: T1, PAR4; assay: FLIPR assay in PAR4-expressing HEK293 cells, test for agonist activity of PAR4 agonist peptides; settings: calcium mobilization in HEK293 cells expressing human PAR4
Description: as §1

EC50 [3] [µM] | Structure (SMILES) | EC50 [1] [nM] | IC50 [2] [nM]
 | COc1cc(OCc2csc(-c3ccncc3)n2)c2cc(-c3cn4nc(OC)sc4n3)oc2c1 [Example 28] | 0.51 | 2.9
61 | C[C@H](N)C(=O)N[C@@H](Cc1ccc(O)cc1)C(=O)N1CCC[C@H]1C(=O)NCC(=O)N[C@@H](CCCCN)C(=O)N[C@@H](Cc1ccccc1)C(N)=O [SEQ ID NO: 1, AYPGKF] |  | 

From patent US9605024B2, “PAR4 agonist peptides” (Bristol-Myers Squibb Company, priority 2012, dated 2017)
